From ChEMBL document CHEMBL6121018, “Targeting JNK3 for Alzheimer's disease: Design and synthesis of novel inhibitors with aryl group diversity utilizing wide pocket” (Eur J Med Chem, 2025)

Sequences of proteins named here, by UniProt entry; tags and fusion partners are left off.
UniProt P08592, whole entry: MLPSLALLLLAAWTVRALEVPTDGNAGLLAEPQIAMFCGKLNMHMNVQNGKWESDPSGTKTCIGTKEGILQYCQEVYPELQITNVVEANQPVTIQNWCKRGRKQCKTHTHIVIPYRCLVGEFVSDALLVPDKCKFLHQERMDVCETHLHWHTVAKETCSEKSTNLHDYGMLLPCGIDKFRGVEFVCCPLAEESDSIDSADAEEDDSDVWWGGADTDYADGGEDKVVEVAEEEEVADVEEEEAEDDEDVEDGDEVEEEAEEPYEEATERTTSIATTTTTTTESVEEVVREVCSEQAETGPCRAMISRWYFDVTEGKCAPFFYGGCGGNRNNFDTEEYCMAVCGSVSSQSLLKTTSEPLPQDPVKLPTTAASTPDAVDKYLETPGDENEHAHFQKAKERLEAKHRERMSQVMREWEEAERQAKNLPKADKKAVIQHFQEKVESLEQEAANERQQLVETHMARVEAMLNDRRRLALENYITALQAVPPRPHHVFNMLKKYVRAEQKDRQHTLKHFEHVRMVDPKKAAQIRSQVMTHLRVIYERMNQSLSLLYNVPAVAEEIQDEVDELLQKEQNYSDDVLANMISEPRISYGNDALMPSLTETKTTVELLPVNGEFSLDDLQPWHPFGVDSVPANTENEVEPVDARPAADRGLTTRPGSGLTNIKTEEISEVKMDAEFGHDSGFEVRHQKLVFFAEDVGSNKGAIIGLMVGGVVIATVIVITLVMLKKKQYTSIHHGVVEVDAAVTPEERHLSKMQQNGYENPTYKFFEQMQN

Target: Amyloid-beta precursor protein (Rattus norvegicus) (UniProt P08592)
Test: Inhibition of APP phosphorylation in amyloid beta (1 to 42 residues)-induced Sprague-Dawley rat primary cortical neurons by Western blot analysis
Type: cell-based
Details: Primary cortical neuron

Row | Structure (SMILES) | inhibition
1 | CN(C)C(=O)N1CCC[C@H](Nc2nccc(-n3cc(/C=C/c4ccccc4)c(C(N)=O)n3)n2)C1 | Active
2 | NC(=O)c1nn(-c2ccnc(N[C@H]3CCCN(C(=O)C4CC4)C3)n2)cc1/C=C/c1ccccc1 | Active

Activity calls are given as the source filed them. No cut-off for these calls is given here.
